Values quoted from earlier work in patent US6585957B1, “Medicinal aerosol formulation” (Aeropharm Technology Incorporated, priority 2000, dated 2003).
Like-named read-outs stand apart in the source and are kept apart here.

How the values were obtained:
[1] = aerosolized insulin delivered into the lung; multiple studies, results quite variable

insulin
half-life [1]: 15 to 25 min
bioavailability (aerosolized insulin given peripherally into the lung of rabbits): over 50.7%
bioavailability (liquid insulin dripped into the central airways): 5.6%
